HIV Env fusion: inhibitors of HIV Env-mediated cell fusion | HeLa-JRFL Env/CEM21 cell fusion, luciferase | inhibition, % at 12.3 µM | hit rate 1.1% among 360,000 | AID 651610;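 active = mean replicate inhibition score of at least 50 and every replicate individually at or above 50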;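 note: 0% = plate neutral controls and 100% = maraviroc near 300 nM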
PGC1a acetyl inh: lowers PGC1a acetylation signal in U2OS cells; inhibition, % at 15.6 µM; hit rate 0.17% among 350,000; AlphaScreen anti-acetyl-lysine; with virally co-expressed GCN5 acetyltransferase;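 active = every replicate shows inhibition of at least 40%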;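 note: 0% = neutral control wells and 100% = positive control wells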
FN deposition inh: fibronectin deposition inhibition. hit rate 0.086% among 350,000. inhibition, % at 12.6 µM. AH1F fibroblasts, Alexa488-fibronectin deposition fluorescence, overnight;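 active = mean inhibition across replicates of 30% or more, regardless of how many single replicates reach that level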;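 note: positive control wells lacked labelled fibronectin entirely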
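test system = AH1F fibroblasts assembling fluorescent fibronectin matrix | quantity = 10000 AH1F cells per well | buffer or medium = DMEM plus 2% serum, read in PBS | doses = single dose, pinned | incubation = 1 h cell attachment, overnight exposure to compound and label | detection = fluorescence at 485 nm excitation, 525 nm emission | read-out basis = inhibition from reduced deposited-fibronectin fluorescence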
miR-122 sensor: inhibitors of miR-122 in Huh7 cells; Huh7 miR-122 Renilla luciferase sensor, 48 h; neutral wells = 0, positive control = 100; activation (reporter increase), % at 12.5 µM; hit rate 0.3% among 340,000; AID 602342;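 active = mean replicate activation score at least 90 and every replicate individually at or above 90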;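 note: higher luciferase means less miR-122 activity so hits act as miR-122 inhibitors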
Cneo AK release: Cryptococcus neoformans lysis via adenylate kinase release; C. neoformans lysis, adenylate kinase release luminescence, 4 h; normalised: neutral wells 0, clomiphene wells 100; lysis activity, % at 15 µM; AID 651654; hit rate 0.2% among 360,000;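 active = mean lysis activity across replicates of at least 80%, whatever share of replicates individually reach that level; inactive = mean lysis activity below 80%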
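Assay system: Cryptococcus neoformans yeast cells / Dosing: single-point compound dose / Timing: 4 h at 37 °C static, read 1 h later / Measured by: luminescence of released adenylate kinase using an AK detection reagent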
Yeast UUG start: alters start codon recognition fidelity in yeast. S. cerevisiae UUG-firefly luciferase reporter, luminescence/redox ratio. activity score, % at 18.7 µM. 0.13% of 350,000 active. AID 602363;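 active = replicate mean at a twofold rise or more, about +100% in these data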;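 also: firefly luciferase made from a UUG start codon reports start codon fidelity; reporter light over untreated wells divided by growth signal over untreated wells; some hits fall short of that in this replicate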
Starred values were filed as active, the others as inactive; x = no result given; [ ] = another dose, or the depositor's remark. Compounds with a hit are over-represented: about 1.5% of the library has one in this group of screens.

Assay codes – A = HIV Env fusion; B = PGC1a acetyl inh; C = FN deposition inh; D = miR-122 sensor; E = Cneo AK release; F = Yeast UUG start
> Cc1cnc(C(=O)Nc2nnc(C(C)C)s2)cn1
  A: -57 | B: 0 | C: -3 | D: -7 | E: -9 | F: -17
> Cc1ccc(C)c(NC(=O)CN(C)C(=O)Cc2ccc(Cl)cc2Cl)c1
  A: 13 | B: x | C: -7 | D: -7 | E: 3 | F: 1
> NC(=O)CN1C(=O)C(=O)N(Cc2cccc(Cl)c2)C1=O
  A: 4 | B: 7 | C: 0 | D: 5 | E: 2 | F: -12
> c1ccc(Nc2nc(N3CCCC3)nc(N3CCOCC3)n2)cc1
  A: 61* | B: x | C: 5 | D: x | E: 0 | F: -4
> COc1ccc(Nc2nc(N3CCCC3)nc(N3CCOCC3)n2)cc1
  A: 19 | B: x | C: -1 | D: x | E: -1 | F: -5
> C[C@@H]1CN([C@@H](C)CO)C(=O)c2cc(N(C)C)ccc2O[C@@H]1CN(C)Cc1ccc(C(=O)Nc2ccccc2N)cc1
  A: -14[16.7 µM] | B: -3 | C: x | D: 254*[16.7 µM] | E: -1 | F: -6
> C[C@H]1CN([C@@H](C)CO)C(=O)c2cc(N(C)C)ccc2O[C@@H]1CN(C)Cc1ccc(C(=O)Nc2ccccc2N)cc1
  A: -28[16.7 µM] | B: -22 | C: x | D: 31[16.7 µM] | E: 1 | F: 8
> C[C@H]1CN([C@@H](C)CO)C(=O)Cc2cc(N(C)C)ccc2O[C@H]1CN(C)Cc1ccc(C(=O)Nc2ccccc2N)cc1
  A: x | B: x | C: -8 | D: x | E: x | F: x
> C[C@H](CO)N1C[C@H](C)[C@H](CN(C)Cc2ccc(C(=O)Nc3ccccc3N)cc2)Oc2ccc(N(C)C)cc2CC1=O
  A: -154[16.7 µM] | B: 37 | C: -3 | D: 355*[16.7 µM] | E: 37 | F: 16
> O=C(Nc1cccc(S(=O)(=O)Nc2ccccc2F)c1)c1ccco1
  A: -7 | B: x | C: 7 | D: 48 | E: -1 | F: -15
> O=C(N[C@H](c1cccc(Br)c1)[C@@H]1CCCC=C1c1ccccc1)C(F)(F)F
  A: 67* | B: x | C: 7 | D: x | E: x | F: x
> COc1ccc(OCC(=O)NNC(=O)c2c(-c3ccccc3Cl)noc2C)cc1
  A: -18 | B: 62* | C: 4 | D: x | E: x | F: x
> COc1ccccc1OCC(=O)NNC(=O)c1c(-c2ccccc2Cl)noc1C
  A: -2 | B: 15 | C: 4 | D: x | E: x | F: x
> CCn1c2ccccc2c2cc(/C=N/n3cn[nH]c3=S)ccc21
  A: -179 | B: 42* | C: -8 | D: -27 | E: 4 | F: -9
> O=S1(=O)CC(N2CCSCC2)CN1Cc1cn(Cc2ccccc2)nn1 (stereo not given)
  A: -22 | B: x | C: -12 | D: x | E: x | F: x
> CC(C)NS(=O)(=O)c1ccc(OCC(=O)NCc2cccnc2)cc1
  A: x | B: -6 | C: x | D: -3 | E: 0 | F: 10
> CCCCOCCCNC(=O)C[C@@H]1C[C@@]2(C(=O)OC)CCCCC=C2N(Cc2ccco2)C1=O
  A: 62* | B: x | C: -4 | D: x | E: x | F: x
> COC(=O)[C@]12CCCCC=C1N(Cc1ccco1)C(=O)[C@H](CC(=O)NCCc1ccccc1OC)C2
  A: 92* | B: x | C: -2 | D: x | E: x | F: x
> CCCCNC(=O)C[C@@H]1C[C@@]2(C(=O)OC)CCCCC=C2N(Cc2ccco2)C1=O
  A: -10 | B: x | C: -11 | D: x | E: x | F: x
> C[C@H]1CCCCO[C@H](CN(C)C)[C@@H](C)CN([C@@H](C)CO)C(=O)c2cc(NS(=O)(=O)c3ccc(Cl)cc3)ccc2O1
  A: -8[16.7 µM] | B: -3 | C: x | D: 4[16.7 µM] | E: x | F: x
> COc1ccc2c(c1)C(C)=CC(C)(C)N2S(=O)(=O)c1ccc(C)cc1
  A: -67 | B: -24 | C: 13 | D: 54 | E: x | F: x
> CC1=CC(C)(C)N(S(=O)(=O)c2ccc(C)cc2)c2cc(C)ccc21
  A: x | B: -40 | C: x | D: 94* | E: -4 | F: -18
> Cc1ccc(S(=O)(=O)NC(=NCc2ccccc2)c2ccc(F)cc2)cc1
  A: 19 | B: 2 | C: x | D: 116* | E: 0 | F: 22
> Cc1nc2c(OCc3ccc(C(F)(F)F)cc3)cccn2c1N(C)C(=O)CCC1CCCC1
  A: 61* | B: -5 | C: -10 | D: -2 | E: 1 | F: -15
> Cc1nc2c(OCc3ccc(F)cc3)cccn2c1N(C)C(=O)CCC1CCCC1
  A: 26 | B: -9 | C: -4 | D: -5 | E: 3 | F: -14
> C=CCC[C@H](Cc1ccc(F)cc1)C(=O)OC[C@H](C)NC(=O)[C@H](CC=C)CC(=O)NCCO
  A: 19 | B: x | C: 13 | D: -21 | E: 1 | F: 17
> C=CCC[C@H](Cc1ccc(F)cc1)C(=O)OC[C@@H](NC(=O)[C@@H](CC=C)CC(=O)N(CCO)Cc1ccccc1)C(C)(C)C
  A: 72* | B: x | C: -15 | D: -7 | E: 0 | F: 4
> C=CCC[C@H](Cc1ccc(F)cc1)C(=O)OC[C@@H](NC(=O)[C@H](CC=C)CC(=O)NCCO)C(C)(C)C
  A: 90* | B: x | C: -5 | D: -9 | E: -22 | F: 11
> CCN(CC(=O)Nc1ccc2c(c1)OCCO2)C(=O)c1cccc(OCC(C)C)c1
  A: -29 | B: x | C: x | D: x | E: -6 | F: -10
> COc1ccc(NS(=O)(=O)c2ccc(OC)c3ccccc23)cn1
  A: x | B: 0 | C: x | D: 356* | E: 2 | F: -21

Structures listed above that bear a hit mark in miR-122 sensor.
| SMILES | HIV Env fusion | PGC1a acetyl inh | miR-122 sensor | Yeast UUG start |
| --- | --- | --- | --- | --- |
| C[C@@H]1CN([C@@H](C)CO)C(=O)c2cc(N(C)C)ccc2O[C@@H]1CN(C)Cc1ccc(C(=O)Nc2ccccc2N)cc1 | -14[16.7 µM] | -3 | 254*[16.7 µM] | -6 |
| C[C@H](CO)N1C[C@H](C)[C@H](CN(C)Cc2ccc(C(=O)Nc3ccccc3N)cc2)Oc2ccc(N(C)C)cc2CC1=O | -154[16.7 µM] | 37 | 355*[16.7 µM] | 16 |
| CC1=CC(C)(C)N(S(=O)(=O)c2ccc(C)cc2)c2cc(C)ccc21 | x | -40 | 94* | -18 |
| Cc1ccc(S(=O)(=O)NC(=NCc2ccccc2)c2ccc(F)cc2)cc1 | 19 | 2 | 116* | 22 |
| COc1ccc(NS(=O)(=O)c2ccc(OC)c3ccccc23)cn1 | x | 0 | 356* | -21 |

(list continues)
Values in the order – HIV Env fusion	PGC1a acetyl inh	FN deposition inh	miR-122 sensor	Cneo AK release	Yeast UUG start
> CC(=O)Nc1sc2c(c1C(c1ccc(F)cc1)N1CCOCC1)CCCC2 (stereo not given)
 : 90*	x	0	1	-1	-11
> CCCn1c(C2CCCN2c2nc(-c3cccc(Br)c3)cs2)nc2cc(Cl)c(Cl)cc21 (stereo not given)
 : x	4	-24	2	0	-4
> CCCn1c(C2CCCN2c2nc(C)cs2)nc2cc(Cl)c(Cl)cc21 (stereo not given)
 : 70*	x	-11	x	1	-6
> O=C1CSc2ccc(C(=O)NCCc3ccc(Cl)cc3Cl)cc2N1
 : x	-1	-8	-18	0	-18
> Cc1ccc(C(=O)CSc2nc(C)cc(SCc3nnc(-c4ccccc4)o3)n2)cc1
 : 62*	-11	5	1	0	-2
> O=C(O)c1cccc(Nc2ccnc(Nc3cccc(C(=O)O)c3)n2)c1
 : 59*	x	2	1	5	-46
> C[C@H]1CN([C@@H](C)CO)C(=O)c2cc(C#Cc3cccc(F)c3)cnc2O[C@@H]1CN(C)CC1CCCC1
 : 18[16.7 µM]	-18	x	-18[16.7 µM]	1	4
> COC(=O)c1sc(NC(=O)c2c(F)cccc2F)c(C#N)c1C
 : 1	1	-2	-5	-3	-23
> Cc1ccc(S(=O)(=O)Nc2ccc(C(=O)Nc3cc(C)on3)cc2)cc1
 : -7	9	8	115*	-2	-8
> Cc1cc(NC(=O)c2ccc(S(=O)(=O)Nc3ccccc3)cc2)no1
 : -33	10	-2	13	8	-15
> O=C(CS(=O)(=O)c1ccccc1)Nc1ccccn1
 : 3	x	7	x	x	x
> N#Cc1ccc(-c2ccc(OCC(O)Cn3nnc4ccccc43)cc2)cc1 (stereo not given)
 : 59*	-2	-6	-2	-1	-7
> C[C@@H]1CN([C@@H](C)CO)C(=O)CCCn2cc(nn2)CO[C@@H]1CN(C)C(=O)CCCN(C)C
 : x	3	0	0[16.7 µM]	97*	13
> C[C@@H]1CN([C@H](C)CO)C(=O)CCCn2cc(nn2)CO[C@@H]1CN(C)C(=O)CCCN(C)C
 : x	-1	x	11[16.7 µM]	105*	30
> C[C@H](CO)N1C[C@H](C)[C@H](CN(C)C(=O)NC2CCCC2)OCc2cn(nn2)CCCC1=O
 : -14[16.7 µM]	-9	-4	1[16.7 µM]	-20	x
> C[C@@H]1CN([C@@H](C)CO)C(=O)CCCn2cc(nn2)CO[C@@H]1CN(C)C(=O)NC1CCCC1
 : 21[16.7 µM]	10	-8	21[16.7 µM]	117*	x
